These results are taken from article PMC9481533, “Structure-based discovery of small molecules that disaggregate Alzheimer’s disease tissue derived tau fibrils in vitro” (Nature Communications, 2022).

By UniProt entry, the sequences of proteins in these tests, tags left out. Residues count along the entry.
UniProt P10636, 623-695 limits assumed: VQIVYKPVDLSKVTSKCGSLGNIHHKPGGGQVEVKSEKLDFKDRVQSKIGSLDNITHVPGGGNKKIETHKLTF

Each structure is given as a SMILES string. “And” between values parts separate entries of the source, which are not always exact repeats. Equal entries are not always repeated.

This test deals with crude AD brain extracts (tau seeds) in HEK293T tau biosensor cells (Homo sapiens, UniProt P10636). The test is described as follows: Tau biosensor cell seeding assay, screen with crude AD brain extracts. The test is classed as cell-based. The note with it: for Number of seeded aggregates in tau biosensor cells (normalized to confluence), Fig. 2e: 10 μM inhibitor on cells, seeds pre-incubated 16–18 h at 4 °C, individual replicates (n=3), DMSO control 10734.9/12808.5/11145.3. An excerpt:
From the in silico screen, compounds were ranked and 46 were selected for further experimental validation based on the total binding energy of the ligand/fibril complex. The experimental assessment consisted of direct measures of fibril disassembly (Fig. 2d, e and Supplementary Table 3) and assessment of the seeding capability of the products of disassembled AD tau fibrils in a biosensor cell assay. Disaggregating molecules that produce active seeds are undesirable for therapy and are excluded from further study. HEK293T cells expressing CFP- or YFP-fused tau are transduced with exogenous AD tau fibrils. Externally applied AD-tau fibrils then induce the aggregation of the endogenous fluorescent tau, resulting in the formation of FRET-positive intracellular aggregates, visible as bright puncta by fluorescence microscopy (Fig. 2f). Automated image analysis of visible puncta provides an objective quantification of seeded aggregation. […] Although biosensors may be limited in reporting structural characteristics of fibril progeny, they offer exquisitely sensitive measures of tau seeding activity—the ability for fibrils to recruit monomeric protein into fibrillar form, which is thought to be the mechanism for tau spreading in AD.
Human autopsy samples were obtained by the Mayo Clinic Brain Bank and UCLA Pathology Department according to HHS regulations from patients consenting to autopsy. Samples were provided to the researchers of this study as anonymized tissues. […]
HEK293T cell lines stably expressing tau-K18 P301S-eYFP were obtained from Marc Diamond[25] and used without further characterization or authentication. […] The number of seeded aggregates was determined by imaging the entire well of a 96-well plate in triplicate using a Celigo Image Cytometer (Nexcelom) in the YFP channel. The number of aggregates in a given image was determined using an ImageJ 2.3.0[50] script, which subtracts the background fluorescence from unseeded cells, and then counts the number of aggregates as peaks with fluorescence above the background using the built-in Particle Analyzer. […]

`CCCCC1C(=O)N(c2ccccc2)N(c2ccccc2)C1=O` [FDA-R20, Phenylbutazone]: the “Number of seeded aggregates in tau biosensor cells (normalized to confluence), Fig. 2e” value is 2296.49 and 3309.68 and 5554.06. For the same compound, under “10 μM screen”, the “Inhibition of seeding in biosensor cells” value is “modest”.

Turning to `CN(C)CCc1c[nH]c2ccc(C[C@H]3COC(=O)N3)cc12` [FDA-R-25, Zolmitriptan], the “Number of seeded aggregates in tau biosensor cells (normalized to confluence), Fig. 2e” value is 10778.7 and 7947.89 and 13610.9.
